Reference: patent publication US20210122804A1, “PEPTIDE LIGANDS FOR BINDING TO CD38” (BicycleTx Limited, priority 2018, published 2021)

Amino acid sequences for entries named in this document (tags omitted). Residues count along the entry.
UniProt P28907, 43-300 limits assumed: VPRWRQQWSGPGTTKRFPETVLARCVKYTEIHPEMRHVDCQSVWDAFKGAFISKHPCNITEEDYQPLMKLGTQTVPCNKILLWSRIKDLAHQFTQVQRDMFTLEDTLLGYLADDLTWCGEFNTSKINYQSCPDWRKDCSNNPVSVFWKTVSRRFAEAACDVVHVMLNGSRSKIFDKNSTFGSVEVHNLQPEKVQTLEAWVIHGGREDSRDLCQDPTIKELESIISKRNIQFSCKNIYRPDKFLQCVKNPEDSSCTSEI

B1: BCY00009245 (peptide)
peptide: ACVPCADFPIWYC
modifications: N-terminal acetyl (Ac); Cys 2, 5 and 13 thioether-linked to TBMB scaffold
notes: bicyclic peptide on trimethylene benzene (TBMB) scaffold, all three linkages thioether; also called Ac-A-(66-03-00)(TBMB) Val1 Tyr9

Target: T1, human CD38 (human, UniProt P28907 43-300, limits assumed)
T1 construct: construct used is not described; also called hCD38
Assay: fluorescence polarisation competition; tracer m11

Row | Ki | Binder
1 | 0.0775 µM | ACYWNPFTACFSCDDD (three Cys thioether-linked to TATA scaffold, bicyclic) [66-50-18-T01-N001]
2 | 0.438 µM | ACYWNPFTACYTCA (three Cys thioether-linked to TATA scaffold, bicyclic) [66-50-05-N001]
3 | 0.158 µM | ACMWNPFTGCYACA (three Cys thioether-linked to TATA scaffold, bicyclic) [66-50-08-N001]
4 | 0.749 µM | ACLYNPFTGCYDCA (three Cys thioether-linked to TATA scaffold, bicyclic) [66-50-09-N001]
5 | 0.179 µM | ACYWNPFTGCYACEAD (three Cys thioether-linked to TATA scaffold, bicyclic) [66-50-15-T02-N001]
6 | 0.26 µM | ARNECFWNPFTGCYSCA (three Cys thioether-linked to TATA scaffold, bicyclic) [66-50-17-T02-N001]
7 | 0.335 µM | ACYWNPFSGCWDCA (three Cys thioether-linked to TATA scaffold, bicyclic) [66-50-10-N001]
8 | 0.575 µM | ACYWNPFTACYVCDVP (three Cys thioether-linked to TATA scaffold, bicyclic; also called 66-50-19-T01-N001) [66-50-19-T001-N001]
9 | 0.182 µM | ACYWNPFTACWSCDTS (three Cys thioether-linked to TATA scaffold, bicyclic; also called 66-50-22-T01-N001) [66-50-22-T001-N001]
10 | 0.085 µM | ACYWNPFTACWACEPD (three Cys thioether-linked to TATA scaffold, bicyclic; also called 66-50-20-T01-N001) [66-50-20-T001-N001]
11 | 0.315 µM | ACYWNPFMGCYSCA (three Cys thioether-linked to TATA scaffold, bicyclic) [66-50-12-N001]
12 | 0.497 µM | ACYWNPFSGCYSCA (three Cys thioether-linked to TATA scaffold, bicyclic) [66-50-07-N001]
13 | 0.94 µM | ACYWNPFMGCYVCA (three Cys thioether-linked to TATA scaffold, bicyclic) [66-50-14-N001]
14 | 0.393 µM | ACYWNPFMGCYTCA (three Cys thioether-linked to TATA scaffold, bicyclic) [66-50-01-N001]
15 | 0.0978 µM | ACYWNPFTGCYSCA (three Cys thioether-linked to TATA scaffold, bicyclic) [66-50-02-N001]
16 | 1.7 µM | ACYWNPFIQCSPCA (three Cys thioether-linked to TATA scaffold, bicyclic) [66-50-03-N001]
17 | 0.104 µM | ACYWNPFTGCYACDST (three Cys thioether-linked to TATA scaffold, bicyclic) [66-50-15-T01-N001]
18 | 0.337 µM | ACYWNPFTACFACEEP (three Cys thioether-linked to TATA scaffold, bicyclic; also called 66-50-21-T01-N001) [66-50-21-T001-N001]
19 | 0.358 µM | ASDNCFWNPFTGCYSCA (three Cys thioether-linked to TATA scaffold, bicyclic) [66-50-17-T01-N001]
20 | 0.935 µM | ACYWNPFAACYDCA (three Cys thioether-linked to TATA scaffold, bicyclic) [66-50-06-N001]
21 | 0.684 µM | ACYWNPFMACFDCA (three Cys thioether-linked to TATA scaffold, bicyclic) [66-50-11-N001]

Target: T1, human CD38
Assay: fluorescence polarisation competition; tracer m10
Method: (§1) CD38 Competition Binding Assay Affinity of various bicycle peptide compounds for human CD38 (Ki) was determined using a fluorescence polarisation assay, using the method reported by Lea et al (Expert Opin Drug Discov. 2011 6(1): 17-3) and using the following fluorescently labelled peptides […]-Sar₆-K(F1) for TBMB derivatives and […]-Sar₆-K(F1) for TATA derivatives where Fl is a fluorescein molecule.

Row | Ki | Binder
22 | 0.035 µM | B1

Target: T1, human CD38
Assay: fluorescence polarisation competition; tracer m10
Remark: another data set of the same source
Method: as §1

Row | Ki | Binder
23 | 0.0268 µM | B1
